{"sequences": {"note": "The chains behind the UniProt entries cited, without tags or fusion partners. Where a name states a change or a piece, a line headed by the entry shows the natural chain unless it says otherwise.", "UniProt O05268": "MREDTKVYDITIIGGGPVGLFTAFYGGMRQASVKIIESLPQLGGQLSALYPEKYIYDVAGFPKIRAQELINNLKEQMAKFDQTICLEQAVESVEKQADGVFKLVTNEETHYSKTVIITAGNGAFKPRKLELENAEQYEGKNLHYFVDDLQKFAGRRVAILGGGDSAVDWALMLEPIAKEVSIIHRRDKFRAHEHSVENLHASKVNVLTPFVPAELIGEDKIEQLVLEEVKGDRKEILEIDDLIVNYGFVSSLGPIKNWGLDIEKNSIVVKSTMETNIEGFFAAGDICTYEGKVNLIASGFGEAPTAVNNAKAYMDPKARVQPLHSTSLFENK"}, "source": "paper PMC11121358", "about": "“Redox Properties of Bacillus subtilis Ferredoxin:NADP^+ Oxidoreductase: Potentiometric Characteristics and Reactions with Pro-Oxidant Xenobiotics” (International Journal of Molecular Sciences, 2024)", "target": "T1, Bacillus subtilis ferredoxin:NADP^+ oxidoreductase (BsFNR) (Bacillus subtilis, UniProt O05268)", "T1 construct": "gene yumC", "data": [{"molecule": "Cc1cc2nc3c(=O)[nH]c(=O)nc-3n(C[C@H](O)[C@H](O)[C@H](O)COP(=O)(O)OP(=O)(O)OC[C@H]3O[C@@H](n4cnc5c(N)ncnc54)[C@H](O)[C@@H]3O)c2cc1C", "note": "[FAD]", "values": [{"measurement": "photoreduction and stopped-flow absorbance spectra of enzyme-bound FAD", "result": "spectral changes of the enzyme-bound FAD during the multiple turnovers"}]}]}
